# AlphaSeq binding of Ab-14 heavy chain variants to a spike HR2 peptide

Values reported by Li et al. 2023, doi:10.1038/s41467-023-39022-2 (FLAb copy).

Antigen: PDVDLGDISGINAS, a 14-residue peptide of the SARS-CoV-2 spike HR2 region.

Parent: Ab-14, a human scFv built as VH, the linker GGGGSGGGGSGGGGS, VL. Only the CDRs of the heavy chain vary.
VH: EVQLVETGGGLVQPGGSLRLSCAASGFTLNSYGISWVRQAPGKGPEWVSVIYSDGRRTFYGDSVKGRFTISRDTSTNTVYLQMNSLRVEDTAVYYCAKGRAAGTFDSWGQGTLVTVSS
VL: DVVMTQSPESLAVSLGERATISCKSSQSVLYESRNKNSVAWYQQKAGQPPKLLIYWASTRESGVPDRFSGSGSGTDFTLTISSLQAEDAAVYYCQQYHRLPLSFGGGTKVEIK

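This is the validation round: designs drawn from the data on random variants, tested in the same kind of assay. Their group label is 14H_En_Gibbs (En: ensemble of fine-tuned language models; Gibbs: Gibbs sampling). The scFvs were displayed on barcoded MATa yeast, the peptide on MATalpha yeast. Pairs that bind mate more often; barcode pairs of the diploids are counted by sequencing. Each replicate has its own calibration line, from reference interactions of the BCL2 family. Mating was done six times.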

Each variant is given by its three heavy chain CDRs, as the data file delimits them; those of the parent are GFTLNSYGIS, VIYSDGRRTFYGDSVK, GRAAGTFDS.
Numbers give log10(Kd / nM), so 0 is 1 nM and 3 is 1 µM. Smaller is tighter.
Replicates are averaged; those with no signal do not enter the mean.
"ND" means that the variant was in the library but no mating with the target was seen in that replicate; the authors take this as a sign of poor binding, and no number exists.

CDR-H1 | CDR-H2 | CDR-H3 | replicates, log10 nM | log10 Kd (nM), mean | empty controls
GFSIDEYGIS | VIYADGSRQVYQNKVK | GKGTGYATL | ND 2.95 ND ND ND ND | 2.95 | 0 of 18
GKGVDEYGIS | VIYADGMRTEYQQSVK | GHTGGIFFV | 1.76 ND ND ND ND ND | 1.76 | 1 of 18 (2.56)
GEDLMEYGIS | VIYADGKRFSYIDDVK | GYSTGFLDV | ND ND ND ND ND ND | ND | 0 of 18
GFNLDEVGIS | VIYADGSRVAYVDNVK | GTVDTVGFV | ND ND ND ND ND ND | ND | 0 of 18
GFDINEYGIS | VIYADGMRTAYVQQVK | GQHLGFVEV | ND ND ND ND ND ND | ND | 0 of 18
GNDLNEYGIS | VIYADGSRTSYQEKVK | GLVGGMLIV | ND ND ND ND ND ND | ND | 0 of 18
GEQLNEYGIS | VIYADGRRTAYSQSVK | GLNGGIIDV | ND ND ND ND ND 1.58 | 1.58 | 0 of 18
GESLNEYGIS | VIYADGQRVKYSNNVK | GLHFGVFDM | ND ND ND ND ND ND | ND | 0 of 18
GEDLSEYGIS | VIYADGERRSYANSVK | GGVSGNFSQ | ND ND 2.01 2.01 2.06 2.29 | 2.09 | 1 of 18 (2.43)
GFNLNEYGIS | VIYADGNRNAYADSFK | GLHANFFAI | ND ND ND ND ND ND | ND | 0 of 18
GFNLDEYGIS | VIYADGVRKAYSSKVK | GKVHWFNLQ | 0.29 -0.05 0.08 -0.30 0.44 0.80 | 0.21 | 0 of 18
GFDIEEYGIS | VIYADGVRTMYTPNVK | GNITGLAMT | ND ND ND ND ND ND | ND | 0 of 18
GFDINEYGIS | VIYADGMRTKYSESVK | GTVDGSFNG | ND 0.41 -0.92 ND -0.09 -0.43 | -0.25 | 0 of 18
GFGLDEYGIS | VIYADGRRTGYQDSFK | GANNFFVKM | ND ND ND ND ND ND | ND | 0 of 18
GFDLGEYGIS | VIYADGKRTAYVENVK | GTFGGTLLD | ND ND ND ND ND ND | ND | 0 of 18
GDDLENVGIS | VIYADGKRKAYAQKVK | GHTGGTFFD | ND ND ND ND ND ND | ND | 0 of 18
GFPLDEYGIS | VIYADGERTHYSNDVK | GTIGGTFFQ | 2.51 2.23 2.00 1.51 2.44 2.17 | 2.14 | 1 of 18 (2.13)
GFSLDEMGIS | VIYADGQRTAYQASVK | GQNGVVVFV | ND ND ND ND ND ND | ND | 0 of 18
GFDLEEYGIS | VIYADGSRTSYQESVK | GLVGGMLDV | ND 2.15 ND ND 1.63 ND | 1.89 | 0 of 18
GFQLTEYGIS | VIYADGRRTAYSQSVK | GLNGGIIDV | ND ND ND ND ND ND | ND | 0 of 18
GKDLEEYGIS | VIYADGVRTSYLDQVK | GESGGAYYT | ND ND ND ND ND ND | ND | 0 of 18
GFDIDEYGIS | VIYADGLRVQYKNRVK | GMYSGVIDM | ND ND ND ND ND ND | ND | 0 of 18
GFNFDEYGIS | VIYADGVRNFYSDSVK | GYIGGFMEV | 0.75 ND 0.85 ND ND ND | 0.80 | 0 of 18
GFNLSEYGIS | VIYADGMRSNYADSVK | GHSGNFFID | ND ND ND ND ND ND | ND | 2 of 18 (2.92)
GFDLNEYGIS | VIYADGHRTFYSNNVK | GGQGGIGLS | ND ND ND ND ND ND | ND | 0 of 18
GFDIEKYGIS | VIYADGQRVAYDSSVK | GENAGNFMV | ND 2.21 2.13 ND ND ND | 2.17 | 0 of 18
GYSLDEYGIS | VIYADGVRQFYADDVK | GGIAGTFNY | 1.46 0.38 0.65 0.07 1.21 2.00 | 0.96 | 0 of 18
GFSIDEYGIS | VIYADGLRQHYANAVK | GEGAGTFTT | ND ND ND ND ND ND | ND | 0 of 18
GDGLEEYGIS | VIYADGMRESYVDDVK | GQKGGIFNL | ND ND ND ND ND ND | ND | 0 of 18
GYDLNEYGIS | VIYADGRRAAYIDDVK | GHVSDHFAV | 0.29 0.21 0.00 -0.24 0.91 0.22 | 0.23 | 0 of 18
GFDFQEYGIS | VIYADGMRTNALDNVK | GNIGATFDD | ND ND ND ND ND ND | ND | 0 of 18
GFDLDEYGIS | VIYADGGRVSYAQNVK | GLVGKGGDV | ND ND ND ND ND ND | ND | 0 of 18
GQDINEYGIS | VIYADGRRKAYSQQVK | GQNLGDVEV | ND ND ND ND ND ND | ND | 0 of 18
GFQLNEYGIS | VIYADGHRSEYADKVK | GGINSSFLV | ND ND ND ND 2.70 ND | 2.70 | 0 of 18
GFSLDEMGIS | VIYADGQRTAYVDNVK | SVQGVVVFL | ND ND ND ND ND ND | ND | 0 of 18
GQQLDEYGIS | VIYADGVRKSYVDSFK | GEITGTFSQ | ND ND ND ND ND ND | ND | 0 of 18
GMDLEEYGIS | VIYADGMRTYASDSVK | GDQGGNLLY | ND ND ND 2.98 ND ND | 2.98 | 1 of 18 (2.34)
GMGLDSYGIS | VIYADGMRTSYDNSVK | GAWAGTFDE | ND 1.54 ND 2.28 ND ND | 1.91 | 0 of 18

Excerpt, the final 4 entries:

CDR-H1 | CDR-H2 | CDR-H3 | replicates, log10 nM | log10 Kd (nM), mean | empty controls
GFSLDEMGIS | VIYADGQRTAYVDNVK | SVQGVVVFL | ND ND ND ND ND ND | ND | 0 of 18
GQQLDEYGIS | VIYADGVRKSYVDSFK | GEITGTFSQ | ND ND ND ND ND ND | ND | 0 of 18
GMDLEEYGIS | VIYADGMRTYASDSVK | GDQGGNLLY | ND ND ND 2.98 ND ND | 2.98 | 1 of 18 (2.34)
GMGLDSYGIS | VIYADGMRTSYDNSVK | GAWAGTFDE | ND 1.54 ND 2.28 ND ND | 1.91 | 0 of 18

In the paper, a design with two or fewer of six values counts as a poor binder.
Of ten entries with the parent sequence, four were seen in most replicates (averages 0.34 to 2.37), three in one and three in none, so single entries are noisy.
A sequence measured in both rounds can read differently, since the two assays cover different ranges.
Empty control strains, which show no peptide, gave a signal in 1% of pairings with all heavy chain designs; the median was 2.08 and 95% of these signals were weaker than 0.84. No background was subtracted. The control count says in how many pairings with the empty strains this scFv gave a signal, with their mean in brackets.